{"source": "paper PMC10861881", "about": "(Proceedings of the National Academy of Sciences of the …, 2024)", "key": {"hERG": {"target": "hERG (Homo sapiens, UniProt Q12809)"}, "PK study IV/PO, rat": {"experiment": "PK study IV/PO, rat", "conditions": "Sprague-Dawley, in vivo"}}, "data": [{"smiles": "C=C(C)C(=O)Nc1ccc(-c2c(-c3ccc(Oc4nccc(C)n4)c(F)c3)c3c(N)ncnc3n2C)cc1", "note": "[Lirafugratinib]", "values": [{"measurement": "IC50", "setting": "hERG", "result": 16, "unit": "µM"}, {"measurement": "clearance", "setting": "PK study IV/PO, rat", "result": 60, "unit": "mL/min/kg"}]}]}
